Legend:
Type in all cases: in vivo
[1] = test system: SirT1 levels in E4FAD mice; assay: First oral 25-day study, brain SirT1 by AlphaLISA; conditions: oral 20 mg/Kg BID, 25 days, vs vehicle
Excerpt: Mice were 9–14 (most >11) months of age at the start of the study and n = 12 (5 females/7 males). […] The method for oral delivery was not gavage, but rather oral feeding of a volume of formulation based on the individual weights of the mice to give the specified dose is introduced to the mouse’s mouth using a pipette tip; this method reduces risk of esophageal injury.
Mice were euthanized and blood/tissues collected 2 hrs after dosing on Day 25 by the method described above for PK. FrCx, PtCx, and hippocampi (Hip) were collected from all mice for SirT1 and sAPPα level determination by AlphaLISA. Protein concentration was determined using a Bradford protein assay. Brain and plasma levels of A03 were determined at IAS.

[2] = test system: SirT1 levels in E4FAD mice; assay: Pilot 28-day SQ efficacy study, brain SirT1 by AlphaLISA; conditions: SQ 10 mg/kg/day, 28 days; for SirT1 in frontal cortex (FrCx), all mice / SirT1 in parietal cortex (PtCx): E4FAD mice, vs E4FAD vehicle
[3] = test system: SirT1 levels in E4FAD mice; assay: Second oral 56-day study, brain SirT1 by AlphaLISA; conditions: oral 20 mg/Kg BID, 56 days
Procedure: E4FAD mice were 10–12 mo and NTg mice 7–9 mo at the start of the study.
Mice were euthanized and blood/tissues collected 2 hrs after dosing on Day 56 by the method described above for PK. Hip and FrCx were collected for analysis of SirT1, sAPPα, and Aβ1-42 levels by AlphaLISA. For Aβ1-42 the Perkin Elmer kit AL276C was used. Protein concentrations were determined using the Bradford protein assay. The sAPPα and sAPPβ AlphaLISAs were similar to the SirT1 AlphaLISA (see Supplementary Fig. S3) but the former uses anti-sAPPα antibody AF1168 and 2B3-biotinylated antibodies and the latter an anti-sAPPβ antibody (IBL Cat. #18957) and an anti-N-terminal APP antibody (R&D Systems AF1168) instead of anti-SirT1 antibodies. Brain tissue and plasma were sent to IAS for A03 level analysis.

[4] = Pharmacokinetics after subcutaneous (SQ) injection in mice; conditions: SQ 10 mg/kg, n = 1

SMILES | SirT1 in PtCx and FrCx [1] | SirT1 in hippocampus (Hip) [1] | SirT1 in frontal cortex (FrCx), all mice [2] | SirT1 in parietal cortex (PtCx) [2] | SirT1 in frontal cortex (FrCx), males ([2]; male E4FAD mice) | SirT1 in PtCx [3] | SirT1 in FrCx ([3]; vs vehicle) | SirT1 in hippocampus (Hip) ([3]; vs vehicle) | Tmax, brain [4]
CC(N)C(=O)OC(C)(C)Cc1ccc(Cl)cc1 (centres unmarked) [A03, alaproclate] | slight increase | trend (p = 0.0805) to an increase | trend to a significant increase | no significant increase | significant increase | no significant increases | no significant increase | significant increase | 
C[C@H](N)C(=O)OC(C)(C)Cc1ccc(Cl)cc1 [E1] |  |  | did not increase SirT1 | no significant increase |  |  |  |  | one

Reference: paper PMC6279743, “A small molecule ApoE4-targeted therapeutic candidate that normalizes sirtuin 1 levels and improves cognition in an Alzheimer’s disease mouse model” (Scientific Reports, 2018)
